{"sequences": {"note": "The chains behind the UniProt entries cited, without tags or fusion partners. Residues count along the entry.", "UniProt P34972, whole entry": "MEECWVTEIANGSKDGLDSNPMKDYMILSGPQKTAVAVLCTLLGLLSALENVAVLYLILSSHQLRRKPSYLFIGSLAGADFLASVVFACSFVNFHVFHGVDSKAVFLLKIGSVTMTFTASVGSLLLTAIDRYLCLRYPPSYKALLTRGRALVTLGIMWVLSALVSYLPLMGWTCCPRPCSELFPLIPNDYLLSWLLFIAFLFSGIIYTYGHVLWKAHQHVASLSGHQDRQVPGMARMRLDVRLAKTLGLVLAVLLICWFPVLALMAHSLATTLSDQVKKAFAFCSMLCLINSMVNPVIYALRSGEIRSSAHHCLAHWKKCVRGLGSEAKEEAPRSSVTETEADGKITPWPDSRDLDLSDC", "UniProt P21554, whole entry": "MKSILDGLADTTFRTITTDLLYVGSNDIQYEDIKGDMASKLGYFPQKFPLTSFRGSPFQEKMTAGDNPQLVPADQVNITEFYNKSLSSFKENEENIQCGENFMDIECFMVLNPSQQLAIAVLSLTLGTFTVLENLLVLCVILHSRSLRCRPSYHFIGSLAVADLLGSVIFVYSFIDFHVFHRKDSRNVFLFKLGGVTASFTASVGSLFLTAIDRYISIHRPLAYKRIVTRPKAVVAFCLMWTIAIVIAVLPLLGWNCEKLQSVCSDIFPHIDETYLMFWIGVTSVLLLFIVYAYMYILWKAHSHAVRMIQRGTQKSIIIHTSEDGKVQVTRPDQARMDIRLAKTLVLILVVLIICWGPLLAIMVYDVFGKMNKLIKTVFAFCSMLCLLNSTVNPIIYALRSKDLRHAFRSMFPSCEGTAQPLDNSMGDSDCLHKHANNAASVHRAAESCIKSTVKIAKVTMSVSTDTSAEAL", "UniProt P06276, 29-602 limits assumed": "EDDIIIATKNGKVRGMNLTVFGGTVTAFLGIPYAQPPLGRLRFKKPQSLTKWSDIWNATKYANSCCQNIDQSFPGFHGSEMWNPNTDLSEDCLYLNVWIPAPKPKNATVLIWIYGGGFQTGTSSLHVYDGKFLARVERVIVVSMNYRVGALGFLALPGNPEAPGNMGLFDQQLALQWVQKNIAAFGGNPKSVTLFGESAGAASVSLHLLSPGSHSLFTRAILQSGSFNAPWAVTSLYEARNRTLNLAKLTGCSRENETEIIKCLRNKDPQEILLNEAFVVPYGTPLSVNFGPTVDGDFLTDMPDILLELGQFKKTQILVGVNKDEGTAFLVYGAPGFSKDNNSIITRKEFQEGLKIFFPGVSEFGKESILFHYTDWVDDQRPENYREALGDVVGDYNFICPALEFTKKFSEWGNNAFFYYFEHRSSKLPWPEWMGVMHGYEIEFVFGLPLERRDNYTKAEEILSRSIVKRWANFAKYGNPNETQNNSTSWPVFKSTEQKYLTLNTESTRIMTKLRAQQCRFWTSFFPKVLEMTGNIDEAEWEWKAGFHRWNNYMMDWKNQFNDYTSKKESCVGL", "UniProt O42275, 24-633 limits assumed": "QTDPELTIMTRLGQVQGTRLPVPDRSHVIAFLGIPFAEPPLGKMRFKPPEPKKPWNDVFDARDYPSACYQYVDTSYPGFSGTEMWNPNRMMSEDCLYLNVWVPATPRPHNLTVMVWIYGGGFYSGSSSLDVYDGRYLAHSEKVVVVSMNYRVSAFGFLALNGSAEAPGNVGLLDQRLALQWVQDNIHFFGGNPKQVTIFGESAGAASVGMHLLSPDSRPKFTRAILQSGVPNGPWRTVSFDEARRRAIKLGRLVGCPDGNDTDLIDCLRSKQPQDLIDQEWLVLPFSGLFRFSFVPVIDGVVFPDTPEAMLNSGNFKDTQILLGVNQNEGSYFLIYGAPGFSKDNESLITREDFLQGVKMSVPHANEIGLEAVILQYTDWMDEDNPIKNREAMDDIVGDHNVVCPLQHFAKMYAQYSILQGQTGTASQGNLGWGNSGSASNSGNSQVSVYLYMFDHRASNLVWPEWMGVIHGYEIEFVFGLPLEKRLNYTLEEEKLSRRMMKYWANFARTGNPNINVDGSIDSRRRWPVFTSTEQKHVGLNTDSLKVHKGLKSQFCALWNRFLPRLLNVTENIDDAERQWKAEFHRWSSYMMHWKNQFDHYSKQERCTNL", "UniProt P22303, 32-614 limits assumed": "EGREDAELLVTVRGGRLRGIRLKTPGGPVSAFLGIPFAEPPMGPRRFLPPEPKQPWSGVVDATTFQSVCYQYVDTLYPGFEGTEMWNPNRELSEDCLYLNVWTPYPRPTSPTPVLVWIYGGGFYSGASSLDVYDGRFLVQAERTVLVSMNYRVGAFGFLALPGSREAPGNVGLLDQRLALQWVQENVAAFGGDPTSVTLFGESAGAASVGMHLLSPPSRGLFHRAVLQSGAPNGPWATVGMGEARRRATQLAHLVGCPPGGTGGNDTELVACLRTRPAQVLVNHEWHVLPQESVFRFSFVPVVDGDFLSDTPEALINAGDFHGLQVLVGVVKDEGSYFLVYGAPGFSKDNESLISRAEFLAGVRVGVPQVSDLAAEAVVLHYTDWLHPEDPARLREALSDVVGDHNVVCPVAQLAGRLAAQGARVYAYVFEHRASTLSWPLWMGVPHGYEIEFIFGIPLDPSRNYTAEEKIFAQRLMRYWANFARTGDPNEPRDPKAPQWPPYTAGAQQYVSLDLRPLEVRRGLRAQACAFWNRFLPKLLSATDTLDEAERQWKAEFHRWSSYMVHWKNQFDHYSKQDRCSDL"}, "source": "patent EP3771713A1", "about": "(priority 2019, dated 2021)", "key": {"hCB2R": {"target": "hCB2R (Homo sapiens, UniProt P34972)", "experiment": "Radioligand binding ([^3H]CP 55,940) at hCB2R, membranes of HEK cells", "settings": "membranes of HEK cells stably expressing hCB2R"}, "HT-22 cells [1]": {"system": "HT-22 cells", "settings": "5 mM glutamate, 24 h, MTT"}, "[2]": {"system": "Aβ25-35-induced learning impairments in mice", "settings": "i.p., once per day day 1 to 7"}, "hCB1R": {"target": "hCB1R (Homo sapiens, UniProt P21554)", "experiment": "Radioligand binding ([^3H]CP 55,940) at hCB1R, membranes of CHO cells", "settings": "10 µM of the compound"}, "hBChE": {"target": "hBChE (Homo sapiens, UniProt P06276)", "experiment": "Ellman's assay, inhibition of hBChE", "type": "biochemical"}, "HT-22 cells [3]": {"system": "HT-22 cells", "experiment": "Neurotoxicity on HT-22 cells (MTT assay)", "settings": "24 h, max. 10 µM"}, "eeAChE": {"target": "eeAChE (Electrophorus electricus, UniProt O42275)", "experiment": "Ellman's assay, inhibition of eeAChE", "type": "biochemical", "settings": "read-out: IC50 AChE (eeAChE); eeAChE from electric eel"}, "Livers of mice": {"system": "Livers of mice", "experiment": "Liver histology of mice treated with the high dose", "settings": "Aβ25-35 mice, 3 mg/kg"}, "hAChE": {"target": "hAChE (Homo sapiens, UniProt P22303)", "experiment": "Ellman's assay, inhibition of hAChE", "type": "biochemical", "settings": "hAChE recombinant expressed"}}, "note": "Only a part of the results on these compounds is given; other tests are left out."}
{"compound": "CCOc1ccc(Cc2nc3cc(C(=O)N(CC)CC)ccc3n2CCNc2c3c(nc4ccccc24)CCCC3)cc1", "values": [{"measurement": "pIC50 ± SD hCB2R (in brackets after Ki)", "setting": "hCB2R", "result": "4.4 ± 0.3"}, {"measurement": "Ki", "setting": "hCB2R; read-out: Ki hCB2R", "result": 38.5, "unit": "µM"}, {"measurement": "neuroprotective behavior (in words)", "setting": "HT-22 cells [1]", "result": "none"}, {"measurement": "dose that significantly prevented Aβ25-35-induced learning impairments", "setting": "[2]", "result": "≥ 1", "unit": "mg/kg"}, {"measurement": "[^3H]CP 55,940 displ. @10 µM hCB1R", "setting": "hCB1R", "result": 36, "unit": "%"}, {"measurement": "SI", "setting": "hBChE; Selectivity index towards hBChE = IC50(eeAChE)/IC50(hBChE)", "result": 750}, {"measurement": "inhibitory potency towards hBChE compared to tacrine", "setting": "hBChE; compared to tacrine", "result": "increased inhibitory potency"}, {"measurement": "pIC50 ± SD hBChE", "setting": "hBChE; hBChE from human serum", "result": "8.9 ± 0.1"}, {"measurement": "IC50", "setting": "hBChE; read-out: IC50 hBChE, hBChE from human serum, means of at least three determinations", "result": 0.0012, "unit": "µM"}, {"measurement": "neurotoxicity (in words)", "setting": "HT-22 cells [3]", "result": "no neurotoxicity"}, {"measurement": "IC50", "setting": "eeAChE", "result": 0.9, "unit": "µM"}, {"measurement": "Micro vesicular steatosis % of specimen", "setting": "Livers of mice", "result": 66, "unit": "%"}, {"measurement": "Micro vesicular steatosis positive/specimen", "setting": "Livers of mice", "result": "8 / 12"}, {"measurement": "Micro vesicular steatosis reported area %", "setting": "Livers of mice", "result": "5-30%"}, {"measurement": "Necrosis % of specimen", "setting": "Livers of mice", "result": 66, "unit": "%"}, {"measurement": "Necrosis reported area %", "setting": "Livers of mice", "result": "2-50%"}, {"measurement": "Necrosis positive/specimen", "setting": "Livers of mice; fresh necrosis", "result": "8 / 12"}, {"measurement": "pIC50 ± SD AChE (hAChE)", "setting": "hAChE", "result": "8.6 ± 0.1"}, {"measurement": "IC50", "setting": "hAChE; read-out: IC50 AChE (hAChE)", "result": 0.0028, "unit": "µM"}]}
